Assay results from ChEMBL document CHEMBL5506011, “Discovery of novel and selective farnesoid X receptor antagonists through structure-based virtual screening, preliminary structure-activity relationship study, and biological evaluation” (Eur J Med Chem, 2024).

Amino acid sequences for entries named in this document (tags omitted).
UniProt P10826, whole entry: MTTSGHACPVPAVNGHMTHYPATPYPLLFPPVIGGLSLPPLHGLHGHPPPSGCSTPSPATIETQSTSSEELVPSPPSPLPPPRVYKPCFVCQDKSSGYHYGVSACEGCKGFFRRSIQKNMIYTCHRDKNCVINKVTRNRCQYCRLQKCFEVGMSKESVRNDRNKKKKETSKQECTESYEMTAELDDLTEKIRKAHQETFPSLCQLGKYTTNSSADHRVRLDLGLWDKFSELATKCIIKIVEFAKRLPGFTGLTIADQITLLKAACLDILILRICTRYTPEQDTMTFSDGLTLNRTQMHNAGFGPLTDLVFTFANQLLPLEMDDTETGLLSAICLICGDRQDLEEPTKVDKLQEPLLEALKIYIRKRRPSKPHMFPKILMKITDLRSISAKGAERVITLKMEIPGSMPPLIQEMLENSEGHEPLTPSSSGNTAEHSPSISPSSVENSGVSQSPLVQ
UniProt P13631, whole entry: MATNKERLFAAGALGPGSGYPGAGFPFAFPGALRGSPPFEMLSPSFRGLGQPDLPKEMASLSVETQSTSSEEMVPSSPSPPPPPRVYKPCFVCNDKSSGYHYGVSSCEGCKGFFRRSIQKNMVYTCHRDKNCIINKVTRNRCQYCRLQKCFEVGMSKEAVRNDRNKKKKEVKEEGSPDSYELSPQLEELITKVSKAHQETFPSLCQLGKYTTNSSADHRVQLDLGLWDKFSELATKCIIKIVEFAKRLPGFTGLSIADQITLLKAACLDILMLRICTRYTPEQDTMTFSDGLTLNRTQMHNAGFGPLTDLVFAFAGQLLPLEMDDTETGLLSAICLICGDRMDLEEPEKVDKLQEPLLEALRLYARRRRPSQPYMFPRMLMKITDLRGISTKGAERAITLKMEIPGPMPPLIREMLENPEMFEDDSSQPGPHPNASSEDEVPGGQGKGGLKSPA

Columns and labels:
[1] = molecular target: Retinoic acid receptor beta (Homo sapiens) (UniProt P10826); assay: Agonist activity at human RARbeta transfected in HEK293T cells co-transfected with RARE-luciferase gene assessed as transactivation measured after 24 hrs by cell-based dual-luciferase reporter gene assay
[2] = molecular target: Retinoic acid receptor gamma (Homo sapiens) (UniProt P13631); assay: Antagonist activity at human RARgamma transfected in HEK293T cells co-transfected with RARE-luciferase gene assessed as transactivation measured after 24 hrs by cell-based dual-luciferase reporter gene assay
[3] = molecular target: Retinoic acid receptor gamma (Homo sapiens) (UniProt P13631); assay: Agonist activity at human RARgamma transfected in HEK293T cells co-transfected with RARE-luciferase gene assessed as transactivation measured after 24 hrs by cell-based dual-luciferase reporter gene assay
[4] = molecular target: Retinoic acid receptor beta (Homo sapiens) (UniProt P10826); assay: Antagonist activity at human RARbeta transfected in HEK293T cells co-transfected with RARE-luciferase gene assessed as transactivation measured after 24 hrs by cell-based dual-luciferase reporter gene assay

Measured: Activity

CCN(CC)c1ccc(CN(CC2CC2)C(=O)NC(C)(C)C)c(OS(=O)(=O)c2ccc(NC(C)=O)cc2)c1
inactive: all assays above

The source made the active and inactive calls.
